Results on 6 compounds are retold here after BindingDB's records for 12904075.

Sequences of proteins named here, by UniProt entry; tags and fusion partners are left off. A change or cut given only in a name is not applied to a line headed by its entry. Residues count along the entry.
UniProt P10696, 20-503 limits assumed: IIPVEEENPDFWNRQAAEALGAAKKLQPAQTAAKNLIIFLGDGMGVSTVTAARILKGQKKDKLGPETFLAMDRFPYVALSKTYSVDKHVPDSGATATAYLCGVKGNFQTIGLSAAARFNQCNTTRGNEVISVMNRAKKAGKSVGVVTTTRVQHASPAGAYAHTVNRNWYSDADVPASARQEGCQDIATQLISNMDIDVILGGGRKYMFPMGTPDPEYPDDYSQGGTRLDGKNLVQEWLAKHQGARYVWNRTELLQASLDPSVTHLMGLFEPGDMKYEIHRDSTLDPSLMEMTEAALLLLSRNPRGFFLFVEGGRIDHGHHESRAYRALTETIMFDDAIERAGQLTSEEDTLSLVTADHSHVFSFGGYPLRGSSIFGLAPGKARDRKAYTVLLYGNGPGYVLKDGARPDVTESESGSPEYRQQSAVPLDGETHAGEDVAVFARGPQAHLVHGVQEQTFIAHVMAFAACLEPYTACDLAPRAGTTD
UniProt P08289, 18-501 limits assumed: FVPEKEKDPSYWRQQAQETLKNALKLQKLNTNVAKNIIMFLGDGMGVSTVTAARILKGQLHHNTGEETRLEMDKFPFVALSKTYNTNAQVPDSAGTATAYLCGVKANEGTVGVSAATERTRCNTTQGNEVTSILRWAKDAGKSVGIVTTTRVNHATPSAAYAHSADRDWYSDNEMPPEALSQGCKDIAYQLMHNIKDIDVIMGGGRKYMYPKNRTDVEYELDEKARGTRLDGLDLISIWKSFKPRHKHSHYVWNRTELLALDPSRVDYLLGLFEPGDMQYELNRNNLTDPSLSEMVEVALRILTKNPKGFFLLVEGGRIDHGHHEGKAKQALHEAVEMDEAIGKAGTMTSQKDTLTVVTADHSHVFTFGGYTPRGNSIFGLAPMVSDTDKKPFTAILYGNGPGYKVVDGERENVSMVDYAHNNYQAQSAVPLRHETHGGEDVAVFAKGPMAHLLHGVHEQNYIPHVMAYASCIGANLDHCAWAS
UniProt P03772: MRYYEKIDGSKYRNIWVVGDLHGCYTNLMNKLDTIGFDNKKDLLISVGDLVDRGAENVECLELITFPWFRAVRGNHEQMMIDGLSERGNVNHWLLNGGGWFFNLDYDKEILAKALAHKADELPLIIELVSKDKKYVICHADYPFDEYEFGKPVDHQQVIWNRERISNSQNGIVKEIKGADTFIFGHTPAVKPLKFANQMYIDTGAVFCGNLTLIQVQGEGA

The target in assay [1] is Alkaline phosphatase, germ cell type (Homo sapiens, UniProt P10696). As to the kind of experiment: ASSAY_NAME: ChEMBL_157081 (CHEMBL765525) DESCRIPTION: Inhibition of Human Placental alkaline Phosphatase (PLAP).
Assay [2] concerns the target Alkaline phosphatase, tissue-nonspecific isozyme (Rattus norvegicus, UniProt P08289). As to the kind of experiment: ASSAY_NAME: ChEMBL_29961 (CHEMBL640395) DESCRIPTION: Inhibitory activity against Escherichia coli Alkaline Phosphatase.
The target in assay [3] is Serine/threonine-protein phosphatase (Lambdavirus lambda, UniProt P03772). As to the kind of experiment: ASSAY_NAME: ChEMBL_96757 (CHEMBL705380) DESCRIPTION: Inhibitory activity against Serine/Threonine Protein Phosphatase (Lambda protein phosphatase).

Each structure is given as a SMILES string.

Turning to `O=P(O)(O)Cc1ccccc1`, the Ki (commonly the dissociation constant of the complex between target and ligand, obtained from inhibition or displacement) in assay [1] amounted to 580 µM.

With `O=C(O)c1cccc2ccc(CP(=O)(O)O)cc12`, the Ki in assay [1] is 390 µM; in assay [2], 300 µM; in assay [3], 130 µM.

Take `O=C(O)c1cccc2ccc(CP(O)(O)=S)cc12`: the Ki in assay [1] came out at 1500 µM; in assay [3], 170 µM.

Take `O=C(O)CCCCCP(=O)(O)O`: the Ki amounted to 7000 µM in assay [1] and 430 µM in assay [3].

For `COC(=O)CCCCCP(O)(O)=S`, the Ki in assay [1] turned out to be 330 µM; in assay [3], 1100 µM.

`O=C(O)CCCCCP(O)(O)=S`: the Ki in assay [1] and in assay [3] was 1500 µM in each case.
